Earlier results on one compound are cited in US7368458B2, “Bicyclic heterocycles as cannabinoid receptor modulators” (Bristol-Myers Squibb Company, priority 2005, dated 2008).

Molecules are shown by their SMILES.

For the series the following is noted: chronic administration for two weeks.

As for `Cc1c(C(=O)NN2CCCCC2)nn(-c2ccc(Cl)cc2Cl)c1-c1ccc(I)cc1` [AM-251], the adipose tissue mass entry is reported as “decreased adipose tissue mass”.
